Earlier results in patent publication US10017787B2, “Production of alkenes from 3-hydroxycarboxylic acids via 3-hydroxycarboxyl-nucleotidylic acids” (Global Bioenergies, priority 2013, dated 2018).

Test system: Rhodotorula minuta
Details: conversion of isovalerate to isobutylene; Fujii T. et al., 1988; cited from earlier work

## isovalerate
  turnover number (kcat): 1e-05 s⁻¹
